Three compounds from patent publication US9944624B2 (dated 2018) can be followed below.

Amino acid sequences for entries named in this document (tags omitted). Residues count along the entry.
UniProt Q13231, 22-466: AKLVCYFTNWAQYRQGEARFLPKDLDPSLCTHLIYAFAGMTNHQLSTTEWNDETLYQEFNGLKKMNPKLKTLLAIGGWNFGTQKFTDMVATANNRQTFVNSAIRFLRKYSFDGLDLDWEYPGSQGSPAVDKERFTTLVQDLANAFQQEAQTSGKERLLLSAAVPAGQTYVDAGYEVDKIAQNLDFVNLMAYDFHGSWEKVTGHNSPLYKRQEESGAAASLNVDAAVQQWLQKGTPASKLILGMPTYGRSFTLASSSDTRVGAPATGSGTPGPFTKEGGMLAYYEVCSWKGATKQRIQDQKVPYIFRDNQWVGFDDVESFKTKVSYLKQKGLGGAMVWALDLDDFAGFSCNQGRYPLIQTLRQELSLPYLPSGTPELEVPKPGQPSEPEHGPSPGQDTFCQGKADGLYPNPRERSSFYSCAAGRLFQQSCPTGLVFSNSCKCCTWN

The structures appear in SMILES notation. Read-outs that look alike come from different tables or passages of the source.

The assay has as its target recombinant human CHIT1 (Homo sapiens (Human), UniProt Q13231). Kind of assay: Human CHIT1 activity assay (fluorescent 4MU substrate). It counts as biochemical.

As a reminder, the IC50 is the concentration needed to halve the response being measured. For the compound `CO[C@@H]1CCN(C2CCN(c3nnc(N)[nH]3)CC2)[C@@H](Cc2ccc(Cl)cc2)C1`, the IC50 fell in the range of 1 to 10 µM.

For the compound `CO[C@H]1CCN(C2CCN(c3nnc(N)[nH]3)CC2)[C@@H](Cc2ccc(Cl)cc2)C1`, the IC50 fell in the range of 0.1 to 1 µM.

As to `Nc1nnc(N2CCC(N3CCC[C@@H]3Cc3ccc(Cl)cc3)CC2)[nH]1` [Example 24, (R)-5-(4-(2-(4-chlorobenzyl)pyrrolidin-1-yl)piperidin-1-yl)-4H-1,2,4-triazol-3-amine], the half-inhibitory concentration (IC50) (read-out: Activity on hCHIT1, IC50, citrate buffer pH 5.2, 37° C., 60 minutes, substrate 4-methylumbelliferyl β-D-N,N′,N″-triacetylchitotriose) was less than 0.1 µM.
